According to patent US6897217B2, “2-Alkynyl-and 2-alkenyl-pyrazolo-[4,3-e]-1,2,4-triazolo-[1,5-c]-pyrimidine adenosine A2a receptor antagonists” (Schering Corporation, priority 2003, dated 2005):

Target: Human A2a Adenosine Receptor (Homo sapiens, UniProt P29274)
Experiment: Human adenosine A2a receptor competition binding assay
Settings: read-out: A2a Ki; [3H]-SCH 58261 displacement, human A2a membranes
Method: Human Adenosine A2a and A1 Receptor Competition Binding Assay Protocol
• A2a: Human A2a Adenosine Receptor membranes, Catalog #RB-HA2a, Receptor Biology, Inc., Beltsville, Md. Dilute to 17 μg/100 μl in membrane dilution buffer (see below). Assay Buffers • Membrane dilution buffer: Dulbecco's Phosphate Buffered Saline (Gibco/BRL)+10 mM MgCl2. • Compound Dilution Buffer: Dulbecco's Phosphate Buffered Saline (Gibco/BRL)+10 mM MgCl2 supplemented with 1.6 mg/ml methyl cellulose and 16% DMSO. Prepared fresh daily. Ligands • A2a: [3H]-SCH 58261, custom synthesis, AmershamPharmacia Biotech, Piscataway, N.J. Stock is prepared at 1 nM in membrane dilution buffer. Final assay concentration is 0.5 nM. • A1: [3H]-DPCPX, AmershamPharmacia Biotech, Piscataway, N.J. Stock is prepared at 2 nM in membrane dilution buffer. Final assay concentration is 1 nM. Non-specific Binding • A2a: To determine non-specific binding, add 100 nM CGS 15923 (RBI, Natick, Mass.). Working stock is prepared at 400 nM in compound dilution buffer. • A1: To determine non-specific binding, add 100 μM NECA (RBI, Natick, Mass.). Working stock is prepared at 400 μM in compound dilution buffer. Compound Dilution • Prepare 1 mM stock solutions of compounds in 100% DMSO. Dilute in compound dilution buffer. Test at 10 concentrations ranging from […] to 30 μM. Prepare working solutions at 4× final concentration in compound dilution buffer. […]

Ki [nM]	SMILES
0.5	CC#Cc1nc2c3cnn(CCN4CCN(c5cc6nc(C)oc6cc5F)CC4)c3nc(N)n2n1
0.6	CC#Cc1nc2c3cnn(CCN4CCN(c5cc6oc(C)nc6cc5F)CC4)c3nc(N)n2n1
